From publication PMC5050210, “BdorOBP83a-2 Mediates Responses of the Oriental Fruit Fly to Semiochemicals” (Frontiers in Physiology, 2016)

Target: T1, BdorOBP83a-1 (Bactrocera dorsalis, UniProt A0A0G2UGI4)
T1 construct: gene OBP83a-1; mature protein without signal peptide
T1 sequence (A0A0G2UGI4 32-155): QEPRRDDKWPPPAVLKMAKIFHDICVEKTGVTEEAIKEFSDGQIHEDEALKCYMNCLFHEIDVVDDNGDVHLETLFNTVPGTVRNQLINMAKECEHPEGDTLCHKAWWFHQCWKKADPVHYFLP
Assay: biochemical
Set-up: Fluorescence competitive displacement of 1-NPN from recombinant OBP, 25 °C, pH 7.4; competitor 5-50 uM
Conditions: 1-NPN displacement, 2 uM protein, 2 uM 1-NPN, extrapolated
Method: Fluorescence spectra were measured on an F-7000 FL Fluorescence Spectrophotometer (Hitachi) in a 10 mm light path quartz cuvette at 25°C. All were excited at 337 nm with emission and excitation slit of both 10 nm. The emission spectra were recorded between 350 and 500 nm. […] All measurements were performed in triplicates and mean values and standard errors are calculated. […] To determine the roles of specific OBPs in recognition of attractants in B. dorsalis, recombinant proteins of selected antenna-abundant OBPs and CSPs were obtained using a prokaryotic expression system (Figure 5). Purified OBPs and CSPs were used to determine binding affinity of each protein via fluorescence competitive binding assays. Thirteen pure attractant compounds were tested against each recombinant protein. […] Except for BdorCSP3 and BdorOBP84a-2, all remaining OBPs could bind to the tested compounds (Figure 6; Table S8). […] Alternatively they might be involved in functions other than odor detection. […] Overall, we observed lower binding affinity with our recombinant proteins and tested attractants. […] In other studies, much higher affinity has been reported. […] The biological significance of the observed lower affinity with B. doralis OBPs here remains to be determined. […]

For `CCCCCCCC1CCC(=O)O1` (stereo not shown) [γ-undecalactone], the IC50 was over 50 µM.
